Kd and IC50 data for 1 molecule are collected here from ChEMBL document CHEMBL1955852, “Development of live-cell imaging probes for monitoring histone modifications” (Bioorg Med Chem, 2012).

The chains behind the UniProt entries cited, without tags or fusion partners.
UniProt Q15059, whole entry: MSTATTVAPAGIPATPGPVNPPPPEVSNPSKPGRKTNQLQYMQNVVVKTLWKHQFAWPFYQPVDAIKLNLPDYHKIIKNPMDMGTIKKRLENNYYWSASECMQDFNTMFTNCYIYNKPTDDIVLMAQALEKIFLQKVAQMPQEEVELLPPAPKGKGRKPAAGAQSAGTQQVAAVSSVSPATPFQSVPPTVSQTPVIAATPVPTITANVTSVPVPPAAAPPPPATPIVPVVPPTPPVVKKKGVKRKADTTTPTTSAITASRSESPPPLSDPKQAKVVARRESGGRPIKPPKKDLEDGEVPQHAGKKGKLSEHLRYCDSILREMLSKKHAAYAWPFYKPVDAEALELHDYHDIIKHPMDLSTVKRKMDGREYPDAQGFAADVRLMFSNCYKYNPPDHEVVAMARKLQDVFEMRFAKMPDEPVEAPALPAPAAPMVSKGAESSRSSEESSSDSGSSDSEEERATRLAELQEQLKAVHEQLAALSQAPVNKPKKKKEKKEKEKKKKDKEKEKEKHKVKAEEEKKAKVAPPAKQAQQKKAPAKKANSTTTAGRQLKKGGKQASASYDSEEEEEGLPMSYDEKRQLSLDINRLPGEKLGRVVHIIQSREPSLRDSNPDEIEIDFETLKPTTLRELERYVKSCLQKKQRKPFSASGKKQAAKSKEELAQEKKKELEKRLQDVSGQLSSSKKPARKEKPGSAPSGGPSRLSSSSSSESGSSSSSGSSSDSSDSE

Experiment [1] deals with T1, Bromodomain-containing protein 3 (Homo sapiens, UniProt Q15059). In words: Binding affinity to BRD3-BD1,2 by isothermal titration calorimetry.
Experiment [2] has as its target T1, Bromodomain-containing protein 3. In words: Displacement of acetylated histone peptide from BRD3-BD1,2 by FRET assay.

`Cc1nnc2n1-c1ccccc1C(c1ccccc1)=N[C@H]2NC(=O)OCc1ccccc1`: in experiment [1], the dissociation constant (Kd) was found to be 0.046 µM. The IC50 in experiment [2] is 0.0284 µM.
